This is an account of results in patent US20130203959A1.

The target in this assay is GLP-1R. Nature of the assay: cell-based or functional assay.

On to “Exendin-4 (from UniProt P26349) (peptide)”, for which the EC50 of intracellular cAMP production in BHK-GLP-1R cells came to 0.017 nM.
